Values of other authors in patent US20080254497A1, “Response Predictors for Erbb Pathway-Specific Drugs” (MONOGRAM BIOSCIENCES, INC., priority 2004, published 2008).

Details: various studies; cited from earlier work

For Erbitux: anti-EGFR antibody-based drug, the “mean concentration of Erbitux” value is listed as 169-235 ugs/ml and the “trough concentration of Erbitux” value is listed as 40-85 ugs/ml.
